Reference: patent US20080096872A1, “Composition for Treatment of Pain Specification” (priority 2004, published 2008)

Test: Serum levels of methadone and EDDP enantiomers by stereoselective LC/MS, with and without NAC
Type: in vivo, human
Settings: each patient, when NAC is used versus not; differences may not be statistically significant

## CC(=O)N[C@@H](CS)C(=O)O [NAC, N-acetyl-cysteine]
  ratio of metabolite/parent isomer (rmtd/reddp; smtd/seddp): lower in each patient when NAC is used
